Results reported in article PMC2131780, “A Tale of Switched Functions: From Cyclooxygenase Inhibition to M-Channel Modulation in New Diphenylamine Derivatives” (PLoS ONE, 2007).
Where two headings read alike, the source gives them in different places. One block for each molecule: values may come before it.

Protein sequences, listed by entry. Tags and fused reporters are not part of them. Lines headed by an entry give the natural chain unless they say otherwise; changes in a name come on top. Residues count along the entry.
UniProt O43525, whole entry: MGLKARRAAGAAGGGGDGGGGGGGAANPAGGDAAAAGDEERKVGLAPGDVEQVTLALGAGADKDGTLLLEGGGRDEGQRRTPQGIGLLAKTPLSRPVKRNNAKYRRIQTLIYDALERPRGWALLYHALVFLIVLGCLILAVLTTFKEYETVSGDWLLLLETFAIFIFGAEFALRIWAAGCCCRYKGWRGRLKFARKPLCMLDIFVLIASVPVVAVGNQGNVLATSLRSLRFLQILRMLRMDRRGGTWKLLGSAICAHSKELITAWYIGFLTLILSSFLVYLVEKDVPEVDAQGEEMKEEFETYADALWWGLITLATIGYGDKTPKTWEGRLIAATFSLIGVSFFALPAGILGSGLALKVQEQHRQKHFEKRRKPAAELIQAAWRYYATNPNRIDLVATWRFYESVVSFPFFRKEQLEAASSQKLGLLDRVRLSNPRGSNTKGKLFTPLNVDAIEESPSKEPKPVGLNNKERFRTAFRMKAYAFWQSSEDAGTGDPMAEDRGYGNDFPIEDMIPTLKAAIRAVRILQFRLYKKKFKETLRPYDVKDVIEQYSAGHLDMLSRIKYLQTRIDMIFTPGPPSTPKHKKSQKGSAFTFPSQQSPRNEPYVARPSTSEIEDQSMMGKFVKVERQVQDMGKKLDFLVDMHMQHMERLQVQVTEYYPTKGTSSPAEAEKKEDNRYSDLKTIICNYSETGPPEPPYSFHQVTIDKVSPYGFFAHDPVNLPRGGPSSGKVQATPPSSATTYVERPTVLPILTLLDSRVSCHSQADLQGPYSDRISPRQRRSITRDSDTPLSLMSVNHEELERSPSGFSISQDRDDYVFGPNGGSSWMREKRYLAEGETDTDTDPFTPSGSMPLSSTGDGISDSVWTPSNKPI
UniProt O43525, whole entry A315T: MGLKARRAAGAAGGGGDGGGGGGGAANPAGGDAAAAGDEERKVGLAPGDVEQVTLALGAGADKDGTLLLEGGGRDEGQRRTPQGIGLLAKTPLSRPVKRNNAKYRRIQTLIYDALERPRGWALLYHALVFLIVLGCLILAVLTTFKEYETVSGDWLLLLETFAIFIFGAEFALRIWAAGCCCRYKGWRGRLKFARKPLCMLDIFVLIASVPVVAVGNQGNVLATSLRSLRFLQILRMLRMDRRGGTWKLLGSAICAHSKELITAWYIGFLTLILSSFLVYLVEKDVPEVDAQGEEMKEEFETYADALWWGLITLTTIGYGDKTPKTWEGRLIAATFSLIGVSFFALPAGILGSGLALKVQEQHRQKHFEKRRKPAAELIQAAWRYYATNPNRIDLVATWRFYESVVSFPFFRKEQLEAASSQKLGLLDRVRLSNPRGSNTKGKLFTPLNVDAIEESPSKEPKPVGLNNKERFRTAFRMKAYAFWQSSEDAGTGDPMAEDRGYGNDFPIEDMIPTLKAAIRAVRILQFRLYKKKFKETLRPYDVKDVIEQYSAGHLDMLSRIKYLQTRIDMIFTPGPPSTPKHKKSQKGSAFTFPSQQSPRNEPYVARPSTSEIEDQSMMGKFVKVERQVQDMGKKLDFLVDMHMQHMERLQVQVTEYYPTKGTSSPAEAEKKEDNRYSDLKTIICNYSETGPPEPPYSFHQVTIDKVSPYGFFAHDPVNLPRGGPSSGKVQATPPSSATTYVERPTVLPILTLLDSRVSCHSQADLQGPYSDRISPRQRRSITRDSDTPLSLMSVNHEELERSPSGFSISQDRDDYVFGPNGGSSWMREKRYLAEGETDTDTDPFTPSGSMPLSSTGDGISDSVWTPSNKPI
UniProt O43526, whole entry: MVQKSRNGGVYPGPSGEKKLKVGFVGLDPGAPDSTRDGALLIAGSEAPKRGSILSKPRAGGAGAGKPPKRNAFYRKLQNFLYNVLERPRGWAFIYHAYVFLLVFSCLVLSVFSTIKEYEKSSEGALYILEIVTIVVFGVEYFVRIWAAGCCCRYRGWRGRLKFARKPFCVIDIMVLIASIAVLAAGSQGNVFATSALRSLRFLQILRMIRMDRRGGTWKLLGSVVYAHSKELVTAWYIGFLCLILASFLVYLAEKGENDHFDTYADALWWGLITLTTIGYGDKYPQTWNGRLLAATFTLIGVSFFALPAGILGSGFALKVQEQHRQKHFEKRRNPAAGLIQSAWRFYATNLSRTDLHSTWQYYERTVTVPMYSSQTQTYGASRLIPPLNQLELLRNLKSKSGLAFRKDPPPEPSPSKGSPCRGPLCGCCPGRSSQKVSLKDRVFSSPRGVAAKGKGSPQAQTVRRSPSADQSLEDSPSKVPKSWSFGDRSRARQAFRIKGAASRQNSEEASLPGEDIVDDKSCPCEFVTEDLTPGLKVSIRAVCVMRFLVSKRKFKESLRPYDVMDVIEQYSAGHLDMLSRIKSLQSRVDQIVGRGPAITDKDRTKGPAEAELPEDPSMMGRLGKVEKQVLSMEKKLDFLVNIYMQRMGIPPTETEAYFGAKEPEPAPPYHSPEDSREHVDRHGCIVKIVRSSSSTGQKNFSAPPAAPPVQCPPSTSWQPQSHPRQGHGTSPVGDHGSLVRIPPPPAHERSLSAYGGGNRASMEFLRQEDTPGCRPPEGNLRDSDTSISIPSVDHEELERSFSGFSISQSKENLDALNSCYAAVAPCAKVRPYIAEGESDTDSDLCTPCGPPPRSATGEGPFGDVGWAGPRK
UniProt Q12809, whole entry: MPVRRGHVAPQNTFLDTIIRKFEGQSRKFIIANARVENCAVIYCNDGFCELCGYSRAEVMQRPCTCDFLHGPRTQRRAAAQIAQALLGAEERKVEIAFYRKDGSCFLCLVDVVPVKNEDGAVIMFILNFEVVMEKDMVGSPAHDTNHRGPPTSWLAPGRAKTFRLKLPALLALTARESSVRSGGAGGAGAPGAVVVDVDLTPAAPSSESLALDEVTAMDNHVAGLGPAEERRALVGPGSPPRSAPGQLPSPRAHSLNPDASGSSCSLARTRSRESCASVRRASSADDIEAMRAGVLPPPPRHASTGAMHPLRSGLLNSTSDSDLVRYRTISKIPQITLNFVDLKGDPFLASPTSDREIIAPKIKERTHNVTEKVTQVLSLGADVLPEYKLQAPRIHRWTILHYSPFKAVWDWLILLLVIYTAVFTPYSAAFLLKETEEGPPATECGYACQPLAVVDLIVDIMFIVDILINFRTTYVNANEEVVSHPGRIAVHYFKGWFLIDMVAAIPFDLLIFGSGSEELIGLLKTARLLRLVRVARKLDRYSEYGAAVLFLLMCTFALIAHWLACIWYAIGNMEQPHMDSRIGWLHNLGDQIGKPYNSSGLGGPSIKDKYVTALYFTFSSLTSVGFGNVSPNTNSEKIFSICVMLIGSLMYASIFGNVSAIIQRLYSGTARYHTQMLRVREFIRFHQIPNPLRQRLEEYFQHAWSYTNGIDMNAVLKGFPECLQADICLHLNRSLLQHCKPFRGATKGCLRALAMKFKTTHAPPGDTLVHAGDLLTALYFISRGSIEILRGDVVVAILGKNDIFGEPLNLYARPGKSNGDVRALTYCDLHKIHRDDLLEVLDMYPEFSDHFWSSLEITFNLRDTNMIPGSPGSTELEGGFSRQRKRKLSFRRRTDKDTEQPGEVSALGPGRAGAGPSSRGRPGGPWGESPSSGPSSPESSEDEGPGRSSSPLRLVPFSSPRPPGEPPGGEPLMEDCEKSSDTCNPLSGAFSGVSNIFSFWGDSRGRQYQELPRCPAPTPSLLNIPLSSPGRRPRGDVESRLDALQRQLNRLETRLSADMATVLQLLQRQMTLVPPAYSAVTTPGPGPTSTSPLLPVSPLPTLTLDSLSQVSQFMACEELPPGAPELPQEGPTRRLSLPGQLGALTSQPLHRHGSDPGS
UniProt Q9UK17, whole entry: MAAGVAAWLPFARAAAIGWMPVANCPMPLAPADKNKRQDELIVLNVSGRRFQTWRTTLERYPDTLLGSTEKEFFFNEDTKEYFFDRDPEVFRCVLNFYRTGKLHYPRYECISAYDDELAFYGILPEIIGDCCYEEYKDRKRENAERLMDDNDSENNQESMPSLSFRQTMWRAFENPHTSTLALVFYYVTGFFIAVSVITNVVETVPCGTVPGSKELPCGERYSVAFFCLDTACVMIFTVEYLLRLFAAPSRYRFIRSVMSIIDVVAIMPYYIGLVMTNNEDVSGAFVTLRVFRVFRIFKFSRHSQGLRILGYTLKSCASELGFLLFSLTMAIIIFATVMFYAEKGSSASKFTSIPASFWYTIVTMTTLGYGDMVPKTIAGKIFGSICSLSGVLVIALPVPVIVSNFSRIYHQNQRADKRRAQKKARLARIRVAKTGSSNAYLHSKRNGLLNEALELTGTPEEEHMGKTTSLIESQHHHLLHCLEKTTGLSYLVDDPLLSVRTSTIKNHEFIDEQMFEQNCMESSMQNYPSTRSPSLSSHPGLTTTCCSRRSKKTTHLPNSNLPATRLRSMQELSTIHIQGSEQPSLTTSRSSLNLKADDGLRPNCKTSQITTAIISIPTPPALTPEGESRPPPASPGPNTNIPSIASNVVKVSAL
UniProt P56696, whole entry: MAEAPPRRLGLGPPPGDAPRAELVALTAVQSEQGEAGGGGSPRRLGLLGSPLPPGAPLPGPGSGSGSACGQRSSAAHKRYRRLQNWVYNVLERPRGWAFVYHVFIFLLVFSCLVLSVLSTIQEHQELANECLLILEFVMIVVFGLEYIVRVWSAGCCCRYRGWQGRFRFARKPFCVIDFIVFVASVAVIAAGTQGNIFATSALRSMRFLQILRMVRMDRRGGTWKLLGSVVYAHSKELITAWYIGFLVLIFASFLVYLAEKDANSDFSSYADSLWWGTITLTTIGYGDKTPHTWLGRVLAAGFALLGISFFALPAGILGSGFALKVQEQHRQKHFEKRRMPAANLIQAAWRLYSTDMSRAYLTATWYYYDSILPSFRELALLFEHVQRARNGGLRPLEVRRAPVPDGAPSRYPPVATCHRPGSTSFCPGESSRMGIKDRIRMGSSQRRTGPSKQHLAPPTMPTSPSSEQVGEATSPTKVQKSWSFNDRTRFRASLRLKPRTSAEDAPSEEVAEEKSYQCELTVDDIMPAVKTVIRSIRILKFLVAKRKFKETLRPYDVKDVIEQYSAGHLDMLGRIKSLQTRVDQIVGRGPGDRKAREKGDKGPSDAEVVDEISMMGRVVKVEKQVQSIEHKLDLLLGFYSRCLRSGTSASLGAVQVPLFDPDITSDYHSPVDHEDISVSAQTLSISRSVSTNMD
UniProt P05979, 25-600 limits assumed: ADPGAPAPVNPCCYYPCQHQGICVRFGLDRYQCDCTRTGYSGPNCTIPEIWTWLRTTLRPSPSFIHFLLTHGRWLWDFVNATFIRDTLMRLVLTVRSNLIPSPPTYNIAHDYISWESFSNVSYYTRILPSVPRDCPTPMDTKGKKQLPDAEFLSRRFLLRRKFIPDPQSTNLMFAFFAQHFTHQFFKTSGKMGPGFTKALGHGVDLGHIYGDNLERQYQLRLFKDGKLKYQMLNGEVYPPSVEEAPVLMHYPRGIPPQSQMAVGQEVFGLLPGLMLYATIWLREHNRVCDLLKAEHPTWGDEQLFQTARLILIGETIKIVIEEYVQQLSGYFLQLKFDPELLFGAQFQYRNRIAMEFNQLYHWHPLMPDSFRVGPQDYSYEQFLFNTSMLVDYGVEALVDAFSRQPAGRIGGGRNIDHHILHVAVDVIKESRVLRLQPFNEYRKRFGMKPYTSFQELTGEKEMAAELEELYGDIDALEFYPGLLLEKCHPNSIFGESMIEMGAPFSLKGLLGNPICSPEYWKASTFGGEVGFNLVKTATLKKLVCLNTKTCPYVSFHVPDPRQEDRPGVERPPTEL
UniProt P35354, 18-604 limits assumed: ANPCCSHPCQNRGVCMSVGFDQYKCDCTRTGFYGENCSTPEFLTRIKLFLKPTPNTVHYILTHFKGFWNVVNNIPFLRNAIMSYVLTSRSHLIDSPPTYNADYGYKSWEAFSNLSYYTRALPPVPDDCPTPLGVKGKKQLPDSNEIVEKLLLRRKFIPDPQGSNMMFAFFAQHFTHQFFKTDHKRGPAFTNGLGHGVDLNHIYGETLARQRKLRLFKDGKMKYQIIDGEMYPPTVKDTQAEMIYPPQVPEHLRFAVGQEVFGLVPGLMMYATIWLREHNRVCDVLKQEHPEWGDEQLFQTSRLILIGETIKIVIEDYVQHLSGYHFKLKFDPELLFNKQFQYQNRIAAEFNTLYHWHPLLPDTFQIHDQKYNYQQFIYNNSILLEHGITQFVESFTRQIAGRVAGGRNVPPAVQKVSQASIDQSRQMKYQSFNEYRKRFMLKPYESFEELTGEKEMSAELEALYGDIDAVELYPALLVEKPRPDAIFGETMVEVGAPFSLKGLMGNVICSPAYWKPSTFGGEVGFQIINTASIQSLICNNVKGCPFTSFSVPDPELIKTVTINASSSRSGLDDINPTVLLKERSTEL

Key:
[1] = system: COX enzymes (D122 mouse Lewis lung carcinoma cells); test: COX inhibition, PGE2 production in D122 cells
[2] = system: COX enzymes (CT26 mouse colon adenocarcinoma cells); test: COX inhibition, PGE2 production in CT26 cells
[3] = molecular target: Kv7.2/3 K+ channels (M-channels) (Homo sapiens, UniProt O43525+O43526); test: Whole-cell patch-clamp of recombinant Kv7.2/3 channels in CHO cells; format: cell-based
Kv7.3 mutant A315T = Kv7.3 mutant A315T (Homo sapiens, UniProt O43525, A315T); test: Kv7.3 mutant A315T activation
[4] = system: primary hippocampal neurons (glutamate and GABA release); test: Spontaneous and miniature post-synaptic currents in cultured hippocampal neurons; settings: 25 µM; not shown
rat DRG neurons = test: Current-clamp recording of cultured DRG neurons; settings: for rheobase current to generate a single spike, DRG neurons: 2 ms injection
Kv11.1 or hERG = Kv11.1 or hERG (Homo sapiens, UniProt Q12809); test: Kv channel specificity, Xenopus oocytes; settings: 50 µM
Kv 2.1 = Kv 2.1 (Homo sapiens, UniProt Q14721); test: Kv channel specificity, Xenopus oocytes; settings: 50 µM
Kv 4.3 = Kv 4.3 (Homo sapiens, UniProt Q9UK17); test: Kv channel specificity, Xenopus oocytes; settings: 50 µM
Kv 7.4 = Kv 7.4 (Homo sapiens, UniProt P56696); test: Kv channel specificity, Xenopus oocytes
Kv7.2 = Kv7.2 (Homo sapiens, UniProt O43526); test: Kv channel specificity, Xenopus oocytes
Kv 7.1 = Kv 7.1 (Homo sapiens, UniProt P51787); test: Kv channel specificity, Xenopus oocytes
purified ovine COX-1 = purified ovine COX-1 (Ovis aries, UniProt P05979); test: COX inhibitor screening assay, purified COX-1; format: biochemical; settings: 1 µM, n = 3
human recombinant COX-2 = human recombinant COX-2 (Homo sapiens, UniProt P35354); test: COX inhibitor screening assay, recombinant COX-2; format: biochemical; settings: 1 µM, n = 3
[5] = read-out: COX inhibition (IC50, µM) D122, average of two experiments in triplicate
[6] = read-out: COX inhibition (IC50, µM) CT26, PGE2 production, CT26 cells, average of two experiments in triplicate

SMILES: Cc1cccc(Nc2ccccc2C(=O)NCCOCCO)c1C
IC50 [1, 5]: 5 µM
IC50 [2, 6]: 20 µM

SMILES: O=C(Cc1cc([N+](=O)[O-])cc([N+](=O)[O-])c1Nc1c(Cl)cc([N+](=O)[O-])cc1Cl)NCCO
left-shift of Kv7.2/3 activation curve ([3]; 10 µM): −13 mV
fold increase in Kv7.2/3 current amplitude ([3]; 25 µM, at −50 mV, n = 5): 9.4±1.2 fold
left-shift of Kv7.2/3 activation curve ([3]; 100 µM): −31 mV
IC50 [1, 5]: > 50 µM
activation of Kv7.3 mutant A315T (Kv7.3 mutant A315T): activate
effect on amplitude of mEPSCs and mIPSCs [4]: did not affect
hyperpolarization of resting membrane potential, DRG neurons (rat DRG neurons; 25 µM): −9.0±1.9 mV
resting membrane potential of DRG neurons after exposure (rat DRG neurons; 25 µM): −65.0±3.4 mV
rheobase current to generate a single spike, DRG neurons (rat DRG neurons; 25 µM): 300±55 pA
number of evoked action potentials, DRG neurons (rat DRG neurons; 25 µM, depolarizing current for 400 ms): 0.9±0.1
effect on current amplitude of Kv11.1 (hERG) (Kv11.1 or hERG): did not affect
Fold current amplitude (Kv11.1 or hERG; −10 mV, Xenopus oocytes): 0.9±0.08 fold
effect on current amplitude of Kv2.1 (Kv 2.1): did not affect
effect on current amplitude of Kv4.3 (Kv 4.3): did not affect
Fold current amplitude (Kv 4.3; +30 mV, Xenopus oocytes): 1.0±0.07 fold
opener activity on Kv7.4 (Kv 7.4): not
opener activity on Kv7.2 (Kv7.2): opener
opener activity on Kv7.1 (Kv 7.1): not
IC50 [2, 6]: > 50 µM

SMILES: O=C(NCCOCCO)c1ccccc1Nc1cccc(C(F)(F)F)c1
M-channels (Kv7.2/Kv7.3) effect (opener / blocker / inactive) ([3]; Kv7.2 and Kv7.3 coexpressed in CHO cells): opener
IC50 [1, 5]: 50 µM
IC50 [2, 6]: 20 µM

SMILES: NCCOCCOC(=O)Cc1ccccc1Nc1c(Cl)cccc1Cl
IC50 ([1]; read-out: COX inhibition (IC50, µM) D122, average of two experiments in triplicate, tested form: HCl): 0.01 µM
inhibition of the purified ovine COX-1 enzyme (purified ovine COX-1; tested form: HCl): 59±1%
depolarization of DRG membrane potential (ΔV) (rat DRG neurons; 1 µM, within 2 min, tested form: HCl): +7±1 mV
rheobase current to generate a single spike, DRG neurons (rat DRG neurons; 1 µM, n = 6, tested form: HCl): 347±44 pA
decrease in rheobase current, DRG neurons (rat DRG neurons; 1 µM, tested form: HCl): about 300 pA
number of evoked spikes, DRG neurons (rat DRG neurons; 1 µM, ∼10–20 pA for 400 ms, n = 5, tested form: HCl): 12±2
IC50 ([2]; read-out: COX inhibition (IC50, µM) CT26, PGE2 production, CT26 cells, average of two experiments in triplicate, tested form: HCl): 0.001 µM
inhibition of the human recombinant COX-2 enzyme (human recombinant COX-2; tested form: HCl): 83±1%

IC50 [1, 5]: 0.003 µM
inhibition of the purified ovine COX-1 enzyme (purified ovine COX-1): 58±1%
IC50 [2, 6]: 0.015 µM
inhibition of the human recombinant COX-2 enzyme (human recombinant COX-2): 85±1%
SMILES: O=C(Cc1ccccc1Nc1c(Cl)cccc1Cl)OCCOCCO

SMILES: O=C(Cc1ccccc1Nc1c(Cl)cccc1Cl)NCCOCCO
EC50 ([3]; read-out: M-channel opener potency EC50, concentration-dependent left-shift ΔV50, sigmoidal fit): 7 µM
IC50 [1, 5]: 30 µM
IC50 [2, 6]: 40 µM
IC50 ([2]; read-out: COX inhibition IC50, in CT26 and D122 cells): > 50 µM
